Test results from paper PMC3563642, “MERTK Interactions with SH2-Domain Proteins in the Retinal Pigment Epithelium” (PLoS ONE, 2013).

Biological target: T1, 6xHis-rMERTK(571–999), full-length human MERTK cytoplasmic domain (human, UniProt Q12866 571-999, autophosphorylated on tyrosine (incubated with ATP/MgCl2); sites Y749, Y753, Y754 were mapped on rMERTK571–864, not on this construct)
T1 construct: Expressed from the pET28a-LIC vector; also called MERTK intracellular domain; source: E. coli BL21 DE3 Gold, purified (Ni2+-NTA, Sephacryl S-200 HR), autophosphorylated with 10 mM ATP, 10 mM MgCl2
T1 sequence (looked up): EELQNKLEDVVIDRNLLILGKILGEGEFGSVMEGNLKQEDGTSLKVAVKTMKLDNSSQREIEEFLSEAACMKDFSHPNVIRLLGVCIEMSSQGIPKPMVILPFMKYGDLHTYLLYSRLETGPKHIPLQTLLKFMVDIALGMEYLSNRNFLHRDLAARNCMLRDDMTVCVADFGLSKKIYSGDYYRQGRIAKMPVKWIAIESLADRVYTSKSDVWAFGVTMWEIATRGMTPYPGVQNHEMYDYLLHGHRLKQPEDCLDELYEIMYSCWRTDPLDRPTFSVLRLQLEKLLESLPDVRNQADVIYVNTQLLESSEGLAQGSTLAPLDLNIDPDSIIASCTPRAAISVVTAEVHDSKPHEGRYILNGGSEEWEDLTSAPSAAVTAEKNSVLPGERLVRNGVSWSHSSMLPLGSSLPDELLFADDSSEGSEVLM
Assay: pull-down; Ni2+-NTA pull down: GST-rSH2-domain protein (10 µg) incubated with autophosphorylated 6xHis-rMERTK571–999 (10 µg) in 50 mM NaH2PO4, 300 mM NaCl, 10 mM imidazole, 0.1 µM PMSF, 1 h at 4°C, then Ni2+-NTA resin 0.5 h; washes with 50 mM imidazole, elution with 500 mM imidazole; Coomassie-stained SDS gels; negative control omits rMERTK
Settings: both partners purified

B1: GRB2 GST-SH2 domain fusion protein (domain or fragment, human, UniProt P62993 60-152, looked up)
chain: WFFGKIPRAKAEEMLSKQRHDGAFLIRESESAPGDFSLSVKFGNDVQHFKVLRDGAGKYFLWVVKFNSLNELVDYHRSTSVSRNQQIFLRDIE
notes: pGEX2T construct from a library of SH2 domains; also called recombinant GRB2; rSH2-domain of GRB2; source: E. coli BL21 DE3 Gold, purified (glutathione-agarose, Sephacryl S-200 HR)
B1: binds.
